Experimental data published in patent US5281594A, “Substituted 1-(alkoxyphenyl)piperazines with ons and antihypertensive activity” (The Upjohn Company, priority 1992, dated 1994).

Sequences of proteins named here, by UniProt entry; tags and fusion partners are left off.
UniProt P61169, whole entry: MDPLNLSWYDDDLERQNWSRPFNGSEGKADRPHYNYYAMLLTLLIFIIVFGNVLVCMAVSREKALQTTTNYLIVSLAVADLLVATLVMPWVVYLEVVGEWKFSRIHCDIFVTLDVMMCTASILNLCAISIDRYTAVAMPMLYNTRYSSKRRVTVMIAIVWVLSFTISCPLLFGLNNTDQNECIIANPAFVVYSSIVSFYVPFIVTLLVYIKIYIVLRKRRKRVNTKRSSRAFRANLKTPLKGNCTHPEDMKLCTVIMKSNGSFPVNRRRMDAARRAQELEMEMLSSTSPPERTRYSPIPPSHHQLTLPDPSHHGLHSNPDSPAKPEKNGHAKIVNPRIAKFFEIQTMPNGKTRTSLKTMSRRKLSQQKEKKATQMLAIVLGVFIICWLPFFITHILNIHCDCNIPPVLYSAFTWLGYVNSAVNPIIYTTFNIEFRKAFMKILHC

Molecular target: D2 receptor (Rattus norvegicus, UniProt P61169)
Experiment: biochemical
Assay type: binding

CN1CCc2cccc3c2[C@H]1Cc1ccc(O)c(O)c1-3 [Apomorphine] showed a Ki of 177 nM.
